In patent publication US11292791B2 (priority 2017, dated 2022):

Target: BRD4 (Homo sapiens (Human), UniProt O60885)
Conditions: read-out: BRD4 IC50 (μM gmean)

Q: `COC(=O)N1c2ccc3c(nc(C(C)Cn4cc(Cl)cn4)n3C3CCNCC3)c2CC[C@@H]1C` (stereo partly shown) [Example 952] was tested. Which IC50 did it give?
A: Its IC50 is 1 to 1000 µM.
